Laboratory results: ChEMBL document CHEMBL5725614, “Histone demethylase inhibitors” (2018)

Experiment: PHF8 Assay: The ability of test compounds to inhibit the activity of PHF8 was determined in 384-well plate format under the following reaction conditions: 3 nM PHF8, 200 nM H3K9me1-biotin labeled peptide (Anaspec cat #64358), 0.5 μM alpha-ketoglutaric acid in assay buffer of 50 mM HEPES, pH7.3, 0.005% Brij35, 0.5 mM TCEP, 0.2 mg/ml BSA, 50 μM sodium L-ascorbate, and 5 μM ammonium iron(II) sulfate. Reaction product was determined quantitatively by TR-FRET after the addition of detection reagent Phycolink Streptavidin-allophycocyanin (Prozyme) and Europium-anti-unmodified-histone H3 lysine 9/lysine27 (H3K9/K27) antibody (PerkinElmer) in the presence of 5 mM EDTA in LANCE detection buffer (PerkinElmer) at a final concentration of 25 nM and 0.5 nM, respectively.The assay reaction was initiated by the following: 2 μl of the mixture of 600 nM H3K9me1-biotin labeled peptide and 1.5 μM alpha-ketoglutaric acid with 2 μl of 11-point serial diluted inhibitor in 3% DMSO were added to each well of the plate, followed by the addition of 2 μl of 9 nM PHF8 to initiate the reaction. The reaction mixture was incubated at room temperature for 15 minutes, and terminated by the addition of 6 μl of 5 mM EDTA in LANCE detection buffer containing 50 nM Phycolink Streptavidin-allophycocyanin and 1 nM Europium-anti-unmodified H3K9/K27 antibody. Plates were read by EnVision Multilabel Reader in TR-FRET mode (excitation at 320 nm, emission at 615 nm and 665 nm) after 1 hour incubation at room temperature. A ratio was calculated (665/615) for each well and fitted to determine inhibition constant (IC50).

Row | Structure (SMILES) | IC50
1 | Cn1cnc(-c2cc(-c3c[nH]nn3)ccn2)c1 | in the range around 0.55 µM
2 | FC(F)(F)Cn1cnc(-c2cc3[nH]nnc3cn2)c1 | in the range around 5.5 µM
3 | Cn1cnc(-c2cc3[nH]nnc3cn2)c1-c1ccc(F)cc1OCC1CC1 | in the range around 5.5 µM
